# Measured values published in PMC9471048.
# Chains of the proteins cited; added tags and fusions are not shown.
# UniProt P08913, whole entry: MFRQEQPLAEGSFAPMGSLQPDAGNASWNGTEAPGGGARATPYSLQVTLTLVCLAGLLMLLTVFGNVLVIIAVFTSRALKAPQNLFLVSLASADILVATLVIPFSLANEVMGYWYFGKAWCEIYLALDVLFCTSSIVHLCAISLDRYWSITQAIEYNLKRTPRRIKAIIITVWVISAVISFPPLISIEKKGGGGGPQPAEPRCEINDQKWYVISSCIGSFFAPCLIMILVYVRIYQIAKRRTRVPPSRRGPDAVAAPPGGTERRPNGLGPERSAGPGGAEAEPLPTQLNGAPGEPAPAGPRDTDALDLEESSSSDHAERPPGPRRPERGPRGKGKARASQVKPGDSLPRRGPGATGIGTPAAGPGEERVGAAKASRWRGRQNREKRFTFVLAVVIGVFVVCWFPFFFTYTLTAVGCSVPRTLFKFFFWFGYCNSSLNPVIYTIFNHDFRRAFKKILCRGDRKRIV
# UniProt P18825, whole entry: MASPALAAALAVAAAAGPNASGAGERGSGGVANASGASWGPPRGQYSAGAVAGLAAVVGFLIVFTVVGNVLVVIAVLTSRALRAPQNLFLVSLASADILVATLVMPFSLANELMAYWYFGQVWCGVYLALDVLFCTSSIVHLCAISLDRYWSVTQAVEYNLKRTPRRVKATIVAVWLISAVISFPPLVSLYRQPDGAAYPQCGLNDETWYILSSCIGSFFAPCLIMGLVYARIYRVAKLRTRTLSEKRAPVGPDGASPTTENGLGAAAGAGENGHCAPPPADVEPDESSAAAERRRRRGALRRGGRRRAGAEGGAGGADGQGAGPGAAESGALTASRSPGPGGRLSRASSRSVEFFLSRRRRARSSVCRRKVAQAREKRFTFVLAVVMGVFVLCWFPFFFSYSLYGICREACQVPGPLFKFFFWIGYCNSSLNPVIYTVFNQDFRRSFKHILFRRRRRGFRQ
# Tests used:
# human α2A‐adrenoceptor [1] = target: T1, human α2A‐adrenoceptor (Homo sapiens, UniProt P08913); details: for IC50: Log IC50 (Gi); for EC50: Log EC50 (Gs)
# human α2C‐adrenoceptor [2] = target: T2, human α2C‐adrenoceptor (Homo sapiens, UniProt P18825); details: for IC50: Log IC50 (Gi), CRE‐SPAP (with forskolin)
# human α2C‐adrenoceptor [3] = target: T2, human α2C‐adrenoceptor; assay: 3H‐rauwolscine whole cell binding in CHO‐α2C cells; details: for Kd: Log KD
# human α2A‐adrenoceptor [4] = target: T1, human α2A‐adrenoceptor; assay: 3H‐rauwolscine whole cell binding in CHO‐α2A cells
SMILES,Log efficacy ratio (KD/IC50) (human α2A‐adrenoceptor [1]),Log efficacy ratio (KD/IC50) (human α2C‐adrenoceptor [2]),Selectivity ratio α2A vs α2C (higher affinity for α2C) (human α2C‐adrenoceptor [3]),Selectivity ratio α2B vs α2C (higher affinity for α2C) (human α2C‐adrenoceptor [3]),"% inhibition, CRE‐SPAP (with forskolin) (human α2A‐adrenoceptor [1]) [%]","Log EC50 (Gs), CRE‐SPAP (without forskolin) (human α2A‐adrenoceptor [1])",IC50 (human α2A‐adrenoceptor [1]; CRE‐SPAP (with forskolin)) [nM],"% inhibition, CRE‐SPAP (with forskolin) (human α2C‐adrenoceptor [2]) [%]","Log EC50 (Gs), CRE‐SPAP (without forskolin) (human α2C‐adrenoceptor [2])",IC50 (human α2C‐adrenoceptor [2]) [nM],Kd (human α2A‐adrenoceptor [4]; Log KD (binding)) [nM],Kd (human α2C‐adrenoceptor [3]) [nM],EC50 (human α2A‐adrenoceptor [1]; CRE‐SPAP (with forskolin)) [nM],EC50 (human α2A‐adrenoceptor [1]; CRE‐SPAP (without forskolin)) [nM],Selectivity ratio α2A vs α2B (higher affinity for α2A) (human α2A‐adrenoceptor [4]),Selectivity ratio α2A vs α2C (higher affinity for α2A) (human α2A‐adrenoceptor [4]),"Kd (human α2A‐adrenoceptor [4]; Log KD, CHO‐α2A) [nM]",Kd (human α2C‐adrenoceptor [3]; CHO‐α2C) [nM]
CC(N)C(O)c1ccc(O)c(O)c1 (stereo not drawn) [α‐methylnorepinephrine],2.78,1.36,29.5,22.9,,,,,,,,,,,,,,
CC(C)C[C@H]1C(=O)N2CCC[C@H]2[C@]2(O)O[C@](NC(=O)[C@@H]3C=C4c5cccc6[nH]c(Br)c(c56)C[C@H]4N(C)C3)(C(C)C)C(=O)N12 [Bromocriptine],,,,,58.1 ± 3.8,No response,5.25,62.3 ± 10.0,No response,37.2,5.62,23.4,,,,,,
Clc1ccc2nsnc2c1NC1=NCCN1 [Tizanidine],1.62,0.69,,1.1,,,25.7,,,,1070,,1510,1410,1.5,1.4,1070,
Cc1cccc(Cc2c[nH]cn2)c1C [Detomidine],0.98,1.37,,,82.6 ± 3.6,No response,4.07,80.8 ± 4.5,No response,3.31,38.9,77.6,,,1.8,2.0,38.9,77.6

# Read-outs that look alike come from different tables or passages of the source.
